# The entries are a selection whose mix differs from that of the whole data set. Activity calls are given as the source filed them. No stated cut-off is given here; in the data, active means activation above about 18%; inactive means the rest.
# Amino acid sequences for entries named in this document (tags omitted).
# UniProt P35372, whole entry, looked up: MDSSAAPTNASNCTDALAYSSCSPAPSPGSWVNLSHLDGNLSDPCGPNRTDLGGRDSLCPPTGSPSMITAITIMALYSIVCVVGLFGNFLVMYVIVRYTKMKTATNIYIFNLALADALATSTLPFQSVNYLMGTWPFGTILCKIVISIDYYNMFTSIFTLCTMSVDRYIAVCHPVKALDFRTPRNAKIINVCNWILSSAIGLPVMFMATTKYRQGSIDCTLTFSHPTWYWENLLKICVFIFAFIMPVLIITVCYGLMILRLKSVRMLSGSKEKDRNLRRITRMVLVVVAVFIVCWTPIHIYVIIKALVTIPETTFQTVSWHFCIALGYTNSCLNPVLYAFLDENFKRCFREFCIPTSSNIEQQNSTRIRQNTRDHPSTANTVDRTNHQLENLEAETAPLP
# UniProt P41143, whole entry, looked up: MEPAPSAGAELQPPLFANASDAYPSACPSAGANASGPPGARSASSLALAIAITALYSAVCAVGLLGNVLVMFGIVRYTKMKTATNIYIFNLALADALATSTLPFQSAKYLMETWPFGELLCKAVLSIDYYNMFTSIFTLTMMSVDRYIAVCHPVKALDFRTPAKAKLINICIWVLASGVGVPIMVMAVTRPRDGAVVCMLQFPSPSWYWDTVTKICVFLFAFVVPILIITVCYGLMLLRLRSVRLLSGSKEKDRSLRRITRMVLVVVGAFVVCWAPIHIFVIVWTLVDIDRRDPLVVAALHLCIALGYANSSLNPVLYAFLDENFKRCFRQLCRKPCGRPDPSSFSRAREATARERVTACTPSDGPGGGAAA
# Target: Mu-type opioid receptor (Homo sapiens) + Delta-type opioid receptor (Homo sapiens) (UniProt P35372+P41143)
# Test: agonists of OPRM1-OPRD1 heterodimerization, primary screen, cell-based, luminescence (AID 504326);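 further: 0% = vehicle-treated cells and 100% = reference agonist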
# Settings: cells, at 9.3 µM, hits give high values
row,Compound,activation
1,COc1ccc(CC(=O)N2CCC(Nc3nc4ccccc4n3Cc3ccc(F)cc3)CC2)cc1,inactive: -1.59%
2,COc1ccc(CCNC(=O)Cn2c(-c3nonc3N)nc3ccccc32)cc1OC,inactive: -1.4%
3,O=C(NCCn1c(C(F)(F)F)nc2ccccc21)[C@H]1CCCN1c1nc(CN2CCCCC2)cs1,inactive: 0.22%
4,COc1ccc(N2C(=O)CC(n3c(CCCCO)nc4ccccc43)C2=O)cc1 (stereo unspecified),inactive: -0.69%
5,Cn1c(=O)c2c(ncn2CC(N)=O)n(C)c1=O,inactive: -0.88%
6,O=C(Cn1c(-c2cncs2)nc2ccccc21)NCc1ccccc1,inactive: -3.05%
7,CC1CN(Cc2nc3c(c(=O)[nH]c(=O)n3C)n2CCN2CCOCC2)CC(C)O1 (stereo unspecified),inactive: -1.49%
8,O=C(Nc1ccc2c(c1)nc1n2CCN(Cc2ccccc2)C1)c1cccs1,inactive: -1.04%
9,O=C(CCC(=O)Nc1ccccc1)N/N=C/C=C/c1ccccc1,inactive: 0.55%
10,Cc1cccc(OCC(O)Cn2c(=N)n(CCN3CCOCC3)c3ccccc32)c1 (stereo unspecified),inactive: -2.21%
11,O=C(CSc1nc2ccccc2n1CC(=O)N1CCCC1)NCc1ccc2c(c1)OCO2,inactive: -0.1%
12,Cc1cc(SC(NC(=O)c2ccc(F)cc2)C(Cl)(Cl)Cl)ncn1 (stereo unspecified),inactive: 0.38%
13,CCOP(=O)(Nc1ccccc1)OCC,inactive: -1.29%
14,CCOc1ccc2nc(NC(=O)Cn3cnc4c3c(=O)n(C)c(=O)n4C)sc2c1,inactive: 0.38%
15,O=C(Cn1c(/C=C/c2ccccc2)nc2ccccc21)Nc1ccc(F)cc1,inactive: 2.02%
16,Cc1csc2c(NC3CCN(Cc4ccccc4)CC3)ncnc12,inactive: -0.7%
17,CCC(=O)Nc1nc2ccccc2n1CCN1CCOCC1,inactive: -2.02%
18,Cn1c(=O)c2c(ncn2CC(=O)Nc2nc3ccc(F)cc3s2)n(C)c1=O,inactive: -1.51%
19,CN(C(=O)Cc1ccc(Cl)c(Cl)c1)[C@H]1CCCC[C@@H]1N1CCCC1,inactive: 0.59%
20,c1ccc(CN2CCC(Nc3nc(-c4cccs4)nc4ccccc34)CC2)cc1,inactive: 5.83%
21,Cc1ccc(NP(=O)(Oc2ccccc2F)Oc2ccccc2F)nc1,inactive: -0.93%
22,Cc1cccc(NC(=O)Cn2c(=O)n(C)c3ccccc32)c1,inactive: -3.41%
23,COc1ccc(NC2CCN(C3CC(=O)N(c4ccc(F)c(Cl)c4)C3=O)CC2)cc1 (stereo unspecified),inactive: 2.5%

row,Compound,activation
1,O=C(Cn1c(COc2ccccc2)nc2ccccc21)Nc1cccc(Cl)c1,active: 22.8%
2,C[C@@H](NC(=O)Cn1cnc2c(NCc3ccccc3)ncnc21)c1cccc2ccccc12,inactive: -4.48%
3,CCCCOC(=O)Cn1c(=N)n(CCN(CC)CC)c2ccccc21,inactive: -4.49%
4,CC(=O)Nc1ccc([As](=O)(O)O)cc1,inactive: -0.27%
5,Cn1c(=O)c2ncn(CC(=O)Nc3ccc4c5c(cccc35)CC4)c2n(C)c1=O,inactive: -0.3%
6,CCOc1cccc(N2C(=O)CC(n3cnc4ccccc43)C2=O)c1 (stereo unspecified),inactive: -1.37%
7,Cc1ccc2c(c1)C1CN(C)CCC1N2C(=O)c1ccccc1NS(=O)(=O)c1ccc(F)cc1 (stereo unspecified),inactive: -1.04%
8,O=C(Cn1c(NCCO)nc2ccccc21)NCC(F)(F)F,inactive: -2.58%
9,O=C(O)c1ccccc1[As](=O)(O)O,inactive: -2.65%
10,O=C(Cn1c(COc2ccccc2)nc2ccccc21)Nc1cc(Cl)cc(Cl)c1,inactive: 0.61%
11,Cn1c(=O)n(CCN2CCOCC2)c(=O)c2c1nc1n2CCN1c1ccc(Oc2ccccc2)cc1,inactive: 0.3%
12,COc1ccc(N2CCN(C(=O)Cn3cnc4c3c(=O)n(C)c(=O)n4C)CC2)cc1,inactive: -1.05%
13,CCCC1OP(N)(=O)OCC1CC (stereo unspecified),inactive: -0.6%
14,Cn1c(=O)c2c(ncn2CC(=O)NC[C@H]2O[C@@H](n3cnc4c(N)ncnc43)[C@H](O)[C@@H]2O)n(C)c1=O,inactive: -3.17%
15,CC(C)[C@H](NC(=O)N1CCn2c1nc1ccccc12)C(=O)NCc1ccccc1Cl,inactive: 0.56%
16,COc1ccc(CN(C)C(=O)Cn2cnc3c(OCc4ccccc4)ncnc32)cc1OC,inactive: -2.99%
17,O=C(Cn1cnc2ccccc21)NCc1ccccc1,inactive: -0.99%
18,Cc1ccc(C)c(S(=O)(=O)N2CCN(C(=O)Cn3c(C(F)(F)F)nc4ccccc43)CC2)c1,inactive: -1.35%
19,Cc1ccc(-c2csc(NCCn3c(-c4ccncc4)nc4ccccc43)n2)cc1,inactive: -0.45%
20,Cc1ccc(CNC(=O)Cn2cnc3c(NCc4ccccc4)ncnc32)o1,inactive: -4.65%
21,CCOC(=O)c1ccccc1NC(=O)Cn1c(-c2nonc2N)nc2ccccc21,inactive: -1.31%
22,CC(C)NC(=O)CC1C(=O)N(Cc2ccccc2)C(C)c2nc3ccccc3n21 (stereo unspecified),inactive: -3.14%
23,C(=N\c1nc2ccccc2n1CCN1CCCCC1)/c1ccc2c(c1)OCO2,inactive: -0.33%

row,Compound,activation
1,O=C(Cn1c(Cc2ccccc2)nc2ccccc21)NCc1ccc2c(c1)OCO2,inactive: -0.73%
2,O=P(Nc1nc2ccc(Cl)cc2s1)(c1ccccc1)c1ccccc1,inactive: -2.26%
3,COC(=O)C1=C(C)N=C2SCCC(=O)N2C1/C=C/c1ccccc1 (stereo unspecified),inactive: -1.83%
4,COC(=O)c1ccc(CNC(=O)Cn2cnc3c(OCc4ccccc4)ncnc32)cc1,inactive: -2.2%
5,O=C(Cn1cnc2c(NCc3ccccc3)ncnc21)NCc1nc2ccccc2[nH]1,inactive: -2.14%
6,CC1CCN(C(=O)Cn2c(SCC(=O)Nc3nccs3)nc3ccccc32)CC1,inactive: -0.27%
7,CCOc1ccc(C(O)Cn2c(=N)n(CCN3CCCCC3)c3ccccc32)cc1 (stereo unspecified),inactive: -2.05%
8,Cn1c(=O)c2ncn(CC(=O)NCCC3=CCCCC3)c2n(C)c1=O,inactive: -0.29%
9,Cn1c(=O)c2c(ncn2CC(=O)N2CCN(S(=O)(=O)c3ccc(F)cc3)CC2)n(C)c1=O,inactive: -2.64%
10,CCCn1c(=O)[nH]c(=O)c2c1nc(-c1ccccc1)n2CCN1CCOCC1,inactive: -1.62%
11,CCCCC(=O)N/N=C(C)/C=C/c1ccccc1F,inactive: 3.04%
12,CCN(CC)CCn1c(/N=C/c2cc(Br)ccc2O)nc2ccccc21,inactive: -1.09%
13,CC1CCCC(C)N1C(=O)Cn1c(SCC(=O)NCc2ccc3c(c2)OCO3)nc2ccccc21 (stereo unspecified),inactive: 0.46%
14,O=C(Cn1c(-c2cscn2)nc2ccccc21)Nc1ccc(Cl)cc1,inactive: -0.67%
15,S=C=Nc1cccc(C2(N3CCCCC3)CCCCC2)c1,inactive: 1.41%
16,CCC(=O)Nc1ccc2c(c1)nc1n2CCN(CCOC)C1,inactive: -0.61%
17,O=C(c1cccc(Cl)c1)N1CCn2c1nc1ccccc12,inactive: -3.39%
18,C=CCOC(=O)C1=C(C)N=C2SCCC(=O)N2C1/C=C/c1ccccc1OC (stereo unspecified),inactive: -0.8%
19,CCCCNc1nc2ccccc2n1CC(=O)N1CCc2ccccc2C1,inactive: -2.22%
20,COc1ccc(C)cc1S(=O)(=O)N1c2ccc(C)cc2C2CN(C)CCC21 (stereo unspecified),inactive: -0.76%
21,Cc1n[nH]c(C)c1CCC(=O)N/N=C/C=C/c1ccccc1,inactive: -1.12%
22,O=C1Cn2c(nc3ccccc32)N1c1ccccc1F,inactive: -0.86%
23,N=c1n(CCCOc2ccc(F)cc2)c2ccccc2n1CC(N)=O,inactive: -3.13%

row,Compound,activation
1,O=C(Cn1cnc2c(OCc3ccccc3)ncnc21)NCCN1CCOCC1,inactive: -3.93%
2,CCc1cccc(CC)c1NC(=O)Cn1c(-c2ccccc2Cl)nc2ccccc21,inactive: 0.56%
3,COCCCNC(=O)CC1C(=O)N(Cc2ccccc2)C(C)c2nc3ccccc3n21 (stereo unspecified),inactive: -3.09%
4,CCCCCCNCCn1cnc2c(N)ncnc21,inactive: -1.75%
5,O=C(Nc1nc2ccccc2n1CCN1CCOCC1)c1ccc(Cl)cc1,inactive: 0.43%
6,Nc1cc(N)c2nonc2c1[N+](=O)[O-],inactive: 1.88%
7,O=C(Cn1cnc2c(NCc3ccccc3)ncnc21)NCCN1CCOCC1,inactive: -2.63%
8,CN(C)CCn1c(COc2ccccc2)nc2ccccc21,inactive: -2.25%
9,Cc1ccccc1C(=O)Nc1cccc(NC(=O)Cn2cnc3c(=O)n(C)c(=O)n(C)c32)c1,inactive: -0.91%
10,N=c1n(CCOc2ccccc2)c2ccccc2n1CCN1CCOCC1,inactive: -3.75%
11,CC(C)CC(=O)NC(Sc1ccc(Cl)cc1)C(Cl)(Cl)Cl (stereo unspecified),inactive: 3.4%
12,CSCC[C@H](NC(=O)N1CCn2c1nc1ccccc12)C(=O)NCc1ccc(C)cc1,inactive: 0.51%
13,CCN(C(=O)Cn1cnc2c1c(=O)n(C)c(=O)n2C)C1CCS(=O)(=O)C1 (stereo unspecified),inactive: -2.97%
14,CCN(C(=O)Cn1cnc2c1c(=O)n(C)c(=O)n2C)C1CCCCC1,inactive: -3.41%
15,CCC(=O)N1c2ccc(S(=O)(=O)CCC(=O)N3CCn4c3nc3ccccc34)cc2CC1C (stereo unspecified),inactive: 1.04%
16,Oc1ccccc1CNc1ccccn1,inactive: 1.28%
17,COCCN1CCn2c(nc3cc([N+](=O)[O-])ccc32)C1,inactive: 0.06%
18,Cc1ccc(-c2csc(N3CCN(c4cc5c(cc4Cl)nc(-c4ccncc4)n5CCN4CCCCC4)CC3)n2)cc1,inactive: -0.63%
19,CC(C)[C@H](NC(=O)N1CCn2c1nc1ccccc12)C(=O)NCC1CCCO1 (stereo partly specified),inactive: -1.84%
20,O=C(NC(Sc1ccncn1)C(Cl)(Cl)Cl)c1ccccc1 (stereo unspecified),inactive: -1.93%
21,Cn1c(=O)c2c(ncn2CC(=O)Nc2cc(S(=O)(=O)N3CCCCC3)ccc2O)n(C)c1=O,inactive: -3.33%
22,Nc1ncnc2c1ncn2CCN1CCCCC1,inactive: -1.54%
